Data taken from patent US20230381223A1, “ORAL PYROPHOSPHATE FOR USE IN REDUCING CALCIFICATION” (PYROGENYX INC., priority 2020, published 2023).

Conditions: mice, gastric gavage, dose equivalent to 39 mg/kg PPi, n≥3 per timepoint

lysine pyrophosphate 1:1 salt [monolysine-H2P2O7]
peak plasma PPi concentration (maximum of the absorption curve): 13.5 ± 1.3 µM
